In assay [1] the target is α-crystallin (human lens extract) (human (endogenous in lens)) (UniProt P02489).
For assay [2] the target is unchanged. The source holds these as a separate data set.

Take αA-(66-80) peptide: in assay [1], the Amount of human lens proteins precipitated by the peptide (µg): 25 µg peptide with 2 mg water-soluble extract of human lens, 50 mM phosphate pH 7.2, 37°C, 24 h; extract alone ∼12 µg amounted to 139 µg. The same substance had a protein precipitated after 24 h at 37°C from human lens crystallins (0.5–9 mg) with 2.5–10 µg of peptide in 1 ml buffer in assay [2] of 40 µg.
Consider αA-(66-80-Ala) peptide, for which, in assay [1], the Amount of human lens proteins precipitated by the peptide (µg): 25 µg peptide with 2 mg water-soluble extract of human lens, 50 mM phosphate pH 7.2, 37°C, 24 h; extract alone ∼12 µg amounted to 103 µg.
Take αA-(66-80-Pro) peptide: the Amount of human lens proteins precipitated by the peptide (µg): 25 µg peptide with 2 mg water-soluble extract of human lens, 50 mM phosphate pH 7.2, 37°C, 24 h; extract alone ∼12 µg in assay [1] stood at 14 µg.
αA-(66-80-Scr) peptide came in with an Amount of human lens proteins precipitated by the peptide (µg): 25 µg peptide with 2 mg water-soluble extract of human lens, 50 mM phosphate pH 7.2, 37°C, 24 h; extract alone ∼12 µg in assay [1] of 19 µg.

For the origin of these results see paper PMC3084282.
